Chains of the proteins cited; added tags and fusions are not shown.
UniProt Q07820, whole entry: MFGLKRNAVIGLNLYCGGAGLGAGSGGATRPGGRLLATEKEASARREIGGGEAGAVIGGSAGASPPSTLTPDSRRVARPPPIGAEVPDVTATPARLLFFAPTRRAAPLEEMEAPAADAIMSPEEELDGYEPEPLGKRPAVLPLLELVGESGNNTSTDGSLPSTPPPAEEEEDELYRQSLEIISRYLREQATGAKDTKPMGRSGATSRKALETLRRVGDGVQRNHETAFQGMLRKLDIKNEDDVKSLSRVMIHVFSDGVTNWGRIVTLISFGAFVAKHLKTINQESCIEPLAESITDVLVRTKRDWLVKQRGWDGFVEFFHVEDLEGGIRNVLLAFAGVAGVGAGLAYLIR

According to ChEMBL document CHEMBL3856277, “Design, synthesis, and activity evaluation of selective inhibitors of anti-apoptotic Bcl-2 proteins: The effects on the selectivity of the P1 pockets in the active sites” (Bioorg Med Chem Lett, 2016):

Molecular target: Induced myeloid leukemia cell differentiation protein Mcl-1 (Homo sapiens, UniProt Q07820)
Test: Inhibition of 5-FAM-Bid peptide binding to MCL-1 (unknown origin) by fluorescence polarization assay

Ki: > 20 µM
SMILES: CN(C)CC[C@H](CSc1ccccc1)Nc1ccc(S(=O)(=O)NC(=O)c2ccc(N3CCN(Cc4ccccc4-c4ccc(Cl)cc4)CC3)cc2)cc1[N+](=O)[O-] [ABT 737]
